Patent US6458580B1, “Fungal sulphur source and method of using the same” (Commonwealth Scientific and Industrial Research Organisation, priority 1997, dated 2002)

System: Neocallimastix sp.LM1
Assay: In vitro growth of Neocallimastix sp. LM1 with test compound as sole source of sulphur (decrease in media pH)
Conditions: not given

Row | Compound | Relative Growth (ΔpH × 100)
1 | N#C[S-].[K+] [Potassium Thiocyanate] | 2
2 | O=S(=O)([O-])[O-].[Na+].[Na+] [Sodium sulfate] | 5
3 | O=S([O-])([O-])=S.[Na+].[Na+] [Sodium thiosulfate] | 5
4 | CSCC[C@H](N)C(=O)O [Methionine] | 39

Same assay, conditions: 0.5 mM, Neocallimastix sp. LM1

Row | Compound | growth as sole sulphur source (in words)
5 | CSSC [Dimethyl disulfide] | better growth
6 | O=C(O)CCS [MPA, 3-mercaptopropanoic acid] | growth comparable to sodium sulphide and somewhat better than cysteine

Same assay, conditions: test compound 0.5 mM as sole sulphur source; five days at 39° C.; […]; previously tested compounds adjusted relative to […]

Row | Compound | Relative Growth (ΔpH × 100)
7 | NC(N)=S [Thiourea] | 2
8 | CC(O)=S [Thioacetic acid] | 0
9 | O=S([O-])[O-].[Na+].[Na+] [Sodium sulfite] | 4
10 | CSSC [Dimethyl disulfide] | 96
11 | CC(=N)S [Thioacetamide] | 6
12 | N[C@@H](CS(=O)O)C(=O)O [Cysteine sulfinic acid] | 1
13 | NCCS(=O)O [Hypotaurine] | 8
14 | Cl.N[C@@H](CS)C(=O)O [Cysteine (HCl)] | 56
